{
  "sequences": {"note": "The chains behind the UniProt entries cited, without tags or fusion partners.", "UniProt Q13285, whole entry, looked up": "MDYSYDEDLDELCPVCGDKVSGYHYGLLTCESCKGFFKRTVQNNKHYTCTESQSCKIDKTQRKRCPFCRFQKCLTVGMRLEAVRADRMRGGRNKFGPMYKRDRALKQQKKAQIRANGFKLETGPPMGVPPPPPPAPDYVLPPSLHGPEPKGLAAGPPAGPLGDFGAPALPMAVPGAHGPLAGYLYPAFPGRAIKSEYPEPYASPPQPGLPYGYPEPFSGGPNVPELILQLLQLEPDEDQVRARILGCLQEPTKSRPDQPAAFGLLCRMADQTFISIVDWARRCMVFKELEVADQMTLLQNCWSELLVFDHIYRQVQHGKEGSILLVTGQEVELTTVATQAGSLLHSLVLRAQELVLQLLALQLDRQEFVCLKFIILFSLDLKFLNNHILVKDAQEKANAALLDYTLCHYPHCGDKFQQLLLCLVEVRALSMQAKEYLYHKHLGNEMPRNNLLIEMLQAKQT"},
  "source": "PubChem BioAssay AID522",
  "about": "(The Scripps Research Institute Molecular Screening Center, 2006)",
  "note": "The list shows a part of the results, in another mix than the full data. Activity calls are given as the source filed them.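 Rule for the calls: active = activation above the mean activation of all tested compounds plus 3 SD (cut at about 50% in these data); inactive = the rest.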",
  "data": [
    {"molecular_target": "Steroidogenic factor 1 (Homo sapiens) (UniProt Q13285)", "assay": "SF-1 ligand-binding domain transactivation enhancers – cell-based, CHO-K1, Gal4-SF-1 LBD, luciferase luminescence, primary screen (AID 522)", "settings": "CHO-K1 Gal4-SF-1 LBD luciferase reporter; at 10 µM; stronger effect = higher value; % increase over DMSO SF-1-specific signal", "outline": "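Test system: CHO-K1 cells with Gal4–hSF-1 LBD chimera plus Gal4-driven luciferase; Input: 4,000 cells/well; Compound: 10 µM only; Times: 20 h compound treatment, 37 °C; Measured by: steady-glow luciferase luminescence, read after 15 min reagent incubation; Measure: percent activation versus DMSO; Control set: DMSO and mock-transfected background; Replicates: one test per compound.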", "values": [
      {"molecule": "Cc1c2non([O-])c-2c(C)[n+](=O)[n+]1[O-]", "activation": "inactive: -24.4%"},
      {"molecule": "CCc1nc2c(n1)c1c(non1O)c1c2no[n+]1[O-]", "activation": "inactive: -12.7%"},
      {"molecule": "O=C(OC1CN2CCC1CC2)c1cccc(Cl)c1", "note": "(stereo not given)", "activation": "inactive: -7.2%"},
      {"molecule": "c1nnnn1CCn1cnnn1", "activation": "inactive: -17.9%"},
      {"molecule": "O=P(Nc1nccs1)(c1ccccc1)c1ccccc1", "activation": "inactive: -6.5%"},
      {"molecule": "O=P1(Nc2nc3ccc(Cl)cc3s2)COc2ccccc2O1", "note": "(stereo not given)", "activation": "inactive: 17.8%"},
      {"molecule": "COC(=O)c1cc2c(s1)N=C(c1ccccc1)N(C)P2(=O)N1CCOCC1", "note": "(stereo not given)", "activation": "inactive: -2.5%"},
      {"molecule": "CCOP1(=S)c2c(C)nn(CCC#N)c2N=C(c2ccc(F)cc2)N1C", "note": "(stereo not given)", "activation": "inactive: 3.9%"},
      {"molecule": "CCOP1(=S)c2c(C)nn(CCC#N)c2N=C(c2ccccc2F)N1C", "note": "(stereo not given)", "activation": "inactive: -6.7%"},
      {"molecule": "O=P(Nc1nccs1)(c1ccccc1)c1nc2ccccc2s1", "note": "(stereo not given)", "activation": "inactive: -14.5%"},
      {"molecule": "Cc1cccc(OCC(=O)OC2CN3CCC2CC3)c1", "note": "(stereo not given)", "activation": "inactive: 22.2%"},
      {"molecule": "Clc1n[nH]nc1-c1nn[nH][15n]1", "activation": "inactive: 29.1%"},
      {"molecule": "O=P1(Nc2ccccn2)COc2ccccc2OC1", "activation": "inactive: -14.4%"},
      {"molecule": "Cc1ccc(OCC(=O)OC2CN3CCC2CC3)cc1", "note": "(stereo not given)", "activation": "inactive: 2.1%"},
      {"molecule": "O=P1(Nc2ccc(Br)cn2)COc2ccccc2OC1", "activation": "inactive: 1.6%"},
      {"molecule": "O=P1(Nc2ncccn2)COc2ccccc2OC1", "activation": "inactive: 3.2%"},
      {"molecule": "Cc1nn(-c2ccccc2)c2c1P(=O)(N1CCOCC1)N(C)C(c1ccccc1)=N2", "note": "(stereo not given)", "activation": "inactive: -11.5%"},
      {"molecule": "O=C(COc1ccccc1)OC1CN2CCC1CC2", "note": "(stereo not given)", "activation": "inactive: -9.8%"},
      {"molecule": "COP1(=S)c2c(C)nn(CCC#N)c2N=C(c2ccc(F)cc2)N1C", "note": "(stereo not given)", "activation": "inactive: 1.6%"},
      {"molecule": "O=C(OC1CN2CCC1CC2)C12CC3CC(CC(C3)C1)C2", "note": "(stereo not given)", "activation": "inactive: 9.2%"}
    ]}
  ]
}
